# Data: US20240140963A1, “FUSED TRICYCLIC CYCLIN-DEPENDENT KINASE INHIBITOR, AND PREPARATION METHOD THEREFOR AND PHARMACEUTICAL USE THEREOF” (Tuojie Biotech (Shanghai) Co., Ltd., priority 2021, published 2024)
# Target: T1, human PXR (Homo sapiens, UniProt O75469)
# T1 construct: host or cells: DPX2 (HepG2)
# T1 sequence (O75469 1-434): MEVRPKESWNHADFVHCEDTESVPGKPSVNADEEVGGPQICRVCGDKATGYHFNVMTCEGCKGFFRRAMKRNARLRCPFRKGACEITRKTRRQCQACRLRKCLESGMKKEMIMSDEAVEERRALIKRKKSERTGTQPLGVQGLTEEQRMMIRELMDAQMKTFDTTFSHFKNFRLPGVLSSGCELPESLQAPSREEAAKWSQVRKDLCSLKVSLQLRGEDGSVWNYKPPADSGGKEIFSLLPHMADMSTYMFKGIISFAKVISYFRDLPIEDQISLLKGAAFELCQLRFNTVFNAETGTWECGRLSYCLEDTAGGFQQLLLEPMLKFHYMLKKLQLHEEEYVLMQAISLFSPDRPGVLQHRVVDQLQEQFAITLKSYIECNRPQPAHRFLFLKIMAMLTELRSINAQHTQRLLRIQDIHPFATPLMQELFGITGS
# Assay: PXR induction assay in DPX2 cells (luciferase reporter)
# Type: cell-based
# Method: 1. The potential of the test compounds to induce the activity of drug metabolism enzymes by in vitro activating PXR was evaluated. EC50 values were obtained by assaying different concentrations of test compounds (30, 10, 3.33, 1.11, 0.370 and 0.123 μM) by in vitro activating PXR. The concentrations of the positive control rifampicin were 20, 5, 1.25, 0.312, 0.0781 and 0.195 μM.
# 1) DPX2 (HepG2 cells were stably transfected with the human PXR gene and the fluorescent reporter gene) cells were purchased from Puracyp (Carlsbad, CA).
# 2) DPX2 cells were cultured in a T-75 culture flask in a 37° C., 5% CO2 incubator with 95% relative humidity. When covering 80-90% of the bottom of the culture flask, the cells were digested. […]
# 1) After […] of drug treatment, quantification of PXR activation could be performed on the culture. […]
# 5) The ONE-Glo reagent was poured into a reagent reservoir, and then 50 μL was transferred to each well using a multi-channel pipette. […] After the incubation, the luminescence value of each well was read using a luminometer.
# The luciferase activity was expressed in terms of […], where RLU is the mean luminescence intensity value of two replicates of each concentration of each compound, and RFU is the mean fluorescence intensity of two replicates of each concentration of each compound. […]
smiles,measurement,setting,value
"CO[C@H]1/C=C/O[C@@]2(C)Oc3c(C)c(O)c4c(O)c(c(/C=N/N5CCN(C)CC5)c(O)c4c3C2=O)NC(=O)/C(C)=C\C=C\[C@H](C)[C@H](O)[C@@H](C)[C@@H](O)[C@@H](C)[C@H](OC(C)=O)[C@@H]1C [Rifampicin, rifampicin, reference compound]",Induction fold,compound concentration 0.0195 μM,1.33
same,Induction fold,compound concentration 20.0 μM,17.60
